Target: T1, muscarinic M1 -receptors (bovine striatal membranes) (Bos taurus, UniProt F1N5C5)
T1 sequence (F1N5C5 1-460): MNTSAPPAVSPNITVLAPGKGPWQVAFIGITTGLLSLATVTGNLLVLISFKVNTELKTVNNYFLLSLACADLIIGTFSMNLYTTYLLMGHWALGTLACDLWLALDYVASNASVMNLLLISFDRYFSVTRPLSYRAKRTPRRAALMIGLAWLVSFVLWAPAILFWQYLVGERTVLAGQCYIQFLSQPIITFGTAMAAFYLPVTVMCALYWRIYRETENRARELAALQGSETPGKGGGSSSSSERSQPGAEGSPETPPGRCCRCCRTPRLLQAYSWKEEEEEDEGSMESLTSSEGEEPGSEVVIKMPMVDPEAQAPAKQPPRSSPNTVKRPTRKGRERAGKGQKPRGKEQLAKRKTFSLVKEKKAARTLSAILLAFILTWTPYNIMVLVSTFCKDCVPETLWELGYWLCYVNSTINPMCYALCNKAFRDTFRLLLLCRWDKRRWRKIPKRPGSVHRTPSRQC
Assay: biochemical
Format: binding
Method: 2. Binding to muscarinic receptors
The affinities of the test compounds for muscarinic M1 -receptors were assessed using the [^3 H]pirenzepine binding assay, modified after Luthin et al. [^3 H]Pirenzepine and [^3 H]QNB binding to brain muscarinic cholinergic receptors. Molec. Pharmac. 1984, 26: 164-169. Briefly, the experiments were carried out on bovine striatal membranes expressing muscarinic M1 -receptors. After incubation with the test article and the proper radioligand and washing, bound radioactivity is determined with a […], using a commercial scintillation cocktail. The specific radioligand binding to each receptor is defined as the difference between total binding and nonspecific binding determined in the presence of an excess of unlabelled ligand. IC50 values (concentrations required to inhibit 50% of specific binding) were determined by non linear regression analysis of the competition curves.

CN1CCC(=C2c3ccccc3CC(=O)c3sccc32)CC1 [Ketotifen, ketotifen] gave an IC50 of 71.1 nM.
